What is called IC50 is the concentration needed to halve the response being measured. A lower IC50 goes with greater potency.

By UniProt entry, the sequences of proteins in these tests, tags left out. Residues count along the entry.
UniProt P08922, 1883-2347 limits assumed: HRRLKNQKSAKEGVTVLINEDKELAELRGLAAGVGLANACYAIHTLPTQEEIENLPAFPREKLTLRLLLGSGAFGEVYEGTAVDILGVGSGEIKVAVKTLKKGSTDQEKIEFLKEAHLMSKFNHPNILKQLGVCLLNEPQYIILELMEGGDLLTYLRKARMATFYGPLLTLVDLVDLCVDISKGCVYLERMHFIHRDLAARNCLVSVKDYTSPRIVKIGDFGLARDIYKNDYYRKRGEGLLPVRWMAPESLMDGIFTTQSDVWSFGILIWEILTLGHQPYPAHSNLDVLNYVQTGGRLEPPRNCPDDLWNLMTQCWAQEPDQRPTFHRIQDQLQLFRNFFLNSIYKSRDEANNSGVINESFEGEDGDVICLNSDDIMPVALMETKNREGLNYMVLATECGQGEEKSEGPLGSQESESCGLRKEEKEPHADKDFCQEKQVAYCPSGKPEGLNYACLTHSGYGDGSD

Drawing on patent US12643906B2 (dated 2026), this text covers IC50 for 1 compound.

In this assay the target is ROS1 (Homo sapiens, UniProt P08922). The assay is described as follows: Kinase inhibition assay with fluorescein labeled peptide, ROS1. The assay is classed as biochemical.

Consider `C[C@@H]1CCc2ncc(F)cc2[C@H]2CCCN2c2ccn3ncc(c3n2)C(=O)N1` [LOXO-195, reference compound], for which half-maximal inhibition (IC50) required 0.66 nM.
